This passage reports viability results from PubChem BioAssay AID648 (SRMLSC, 2007).

The structures appear in SMILES notation. Only a part is listed here, and it is no random draw. Active and inactive are the calls of the source.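 How the source made its calls: active means viability at or below 30%; inactive means viability above 30%.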

This test is described as follows: endothelial cell growth inhibition – HUVEC, 384-well, primary screen (AID 648).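 Further: 100% = median luminescence of DMSO-only cell control wells on each plate.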 The settings on record: HUVEC proliferation, CellTiter-Glo luminescence, 72 h; hits give low values; screened at 10 µM (by protocol). Background: In ATP-based viability assays light output follows the ATP content of the culture.
On to `O=C(COc1ccccc1)OC1CN2CCC1CC2` (configuration not stated), for which the viability was inactive: 108%. In the case of `COP1(=S)c2c(C)nn(CCC#N)c2N=C(c2ccc(F)cc2)N1C` (configuration not stated), the viability is inactive: 104%. `CCC(C)N(CC(C)C)C(=S)SC(NC(C)=O)C(Cl)(Cl)Cl` (configuration not stated): the viability was inactive: 73.4%. Turning to `O=C(OC1CN2CCC1CC2)C12CC3CC(CC(C3)C1)C2` (configuration not stated), the viability was inactive: 83.6%.

For the compound `ClCCSc1nnc(-c2cccnc2)o1`, the viability is inactive: 91.5%.

Consider `CCOP1(=S)c2c(C)nn(CCC#N)c2N=C(c2ccccc2F)N1C` (configuration not stated), for which the viability was inactive: 101%. As for `CCOP1(=S)c2c(C)nn(CCC#N)c2N=C(c2ccc(F)cc2)N1C` (configuration not stated), the viability was inactive: 100%. Under `Cc1cccc(OCC(=O)OC2CN3CCC2CC3)c1` (configuration not stated) stands inactive: 106%.

Regarding `Clc1n[nH]nc1-c1nn[nH][15n]1`, the viability is inactive: 89.4%.

With `O=P1(Nc2ccccn2)COc2ccccc2OC1`, the viability is inactive: 98.2%. For the compound `CC1(CBr)Cn2c(nc3ccccc3c2=O)S1` (configuration not stated), the viability was inactive: 90.8%. Under `Cc1nn(-c2ccccc2)c2c1P(=O)(N1CCOCC1)N(C)C(c1ccccc1)=N2` (configuration not stated) stands inactive: 91.3%; under `Cc1ccc(OCC(=O)OC2CN3CCC2CC3)cc1` (configuration not stated), inactive: 90.3%; under `O=P1(Nc2ccc(Br)cn2)COc2ccccc2OC1`, inactive: 92.5%. Consider `O=P1(Nc2ncccn2)COc2ccccc2OC1`, for which the viability is inactive: 95.7%. Under `O=C(OC1CN2CCC1CC2)c1cccc(Cl)c1` (configuration not stated) stands inactive: 90.2%; under `c1nnnn1CCn1cnnn1`, inactive: 108%. With `O=P(Nc1nccs1)(c1ccccc1)c1ccccc1` the figure was inactive: 91.7%; with `O=P1(Nc2nc3ccc(Cl)cc3s2)COc2ccccc2O1` (configuration not stated), inactive: 93.5%; with `COC(=O)c1cc2c(s1)N=C(c1ccccc1)N(C)P2(=O)N1CCOCC1` (configuration not stated), inactive: 98.7%. With `CCOP(=O)(Nc1ccccc1)OCC` the figure was inactive: 88.8%.

Consider `CN1CCCC(OC(=O)C(c2ccccc2)c2ccccc2)C1` (configuration not stated), for which the viability was inactive: 80.4%.

Take `Oc1ccccc1CNc1ccccn1`: the viability was inactive: 92.7%. Turning to `Cc1c2non([O-])c-2c(C)[n+](=O)[n+]1[O-]`, the viability was inactive: 92.6%.

For `CCc1nc2c(n1)c1c(non1O)c1c2no[n+]1[O-]`, the viability is inactive: 62.9%. With `O=[N+]([O-])c1cccc2n[nH]nc12` the figure was inactive: 108%; with `CC1CCN(C(=O)Oc2c(Cl)cc(Cl)c3cccnc23)CC1`, inactive: 102%.

Usually viability stands for a read-out of living cells in per cent, often relative to untreated cells.
